The values below come from patent US7368433B2, “Peptides and methods for the control of obesity” (University of Florida Research Foundation, Inc., priority 2002, dated 2008).

Protein sequences, listed by entry. Tags and fused reporters are not part of them. Lines headed by an entry give the natural chain unless they say otherwise; changes in a name come on top.
UniProt Q01727: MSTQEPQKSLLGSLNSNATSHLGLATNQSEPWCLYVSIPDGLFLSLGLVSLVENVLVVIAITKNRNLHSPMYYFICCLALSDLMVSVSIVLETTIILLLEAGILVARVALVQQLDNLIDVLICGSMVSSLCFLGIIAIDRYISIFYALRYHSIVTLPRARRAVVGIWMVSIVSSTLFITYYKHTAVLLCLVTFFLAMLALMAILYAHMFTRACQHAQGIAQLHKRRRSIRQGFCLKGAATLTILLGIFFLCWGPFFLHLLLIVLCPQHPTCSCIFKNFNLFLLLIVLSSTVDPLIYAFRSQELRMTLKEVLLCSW

The target of the assay is T1, mMC1R (Mus musculus, UniProt Q01727).
T1 construct: expressed in transfected cells; host or cells: HEK-293
As to the kind of experiment: Functional bioassay (CRE/β-galactosidase reporter), agonist activity at mMC1R. It is filed as cell-based. The note with it: HEK-293 cells stably expressing receptor; ± standard error of the mean, at least four experiments. As for the experimental part: For cell culture and transfection, briefly, HEK-293 cells were maintained in Dulbecco's modified Eagle's medium (DMEM) with 10% fetal calf serum and seeded 1 day prior to transfection at 1 to 2×10^6 cell/100-mm dish. Melanocortin receptor DNA in the pcDNA3 expression vector (20 μg) were transfected using the calcium phosphate method. Stable receptor populations were generated using G418 selection (1 mg/mL) for subsequent bioassay analysis.
In the functional bioassay studies, HEK-293 cells stably expressing the melanocortin receptors were transfected with 4 μg CRE/β-galactosidase reporter gene as previously described in the literature. Briefly, 5,000 to 15,000 post transfection cells were plated into 96 well Primera plates (Falcon) and incubated overnight. […] The sample absorbance, OD405, was measured using a 96 well plate reader (Molecular Devices). The relative protein was determined by adding 200 μL 1:5 dilution Bio Rad G250 protein dye:water to the 10 μL cell lysate sample taken previously, and the OD595 was measured on a 96 well plate reader (Molecular Devices). […]
The pA2 values were generated using the Schild analysis method [Schild, H. O. pA2, A New Scale for the Measurement of Drug Antagonism. […] EC50 and pA2 estimates, and their associated standard errors, were determined by fitting the data to a nonlinear least-squares analysis using the PRISM program (v3.0, GraphPad Inc.).

Each structure is given as a SMILES string.

For `CC(=O)N[C@@H](Cc1cnc[nH]1)C(=O)N[C@H](Cc1ccccc1)C(=O)N[C@@H](CCCN=C(N)N)C(=O)N[C@@H](Cc1c[nH]c2ccccc12)C(N)=O` [JRH279-31, Ac-His-DPhe-Arg-Trp-NH2], the EC50 was 20.1 ± 0.57 nM.

Usually EC50 stands for the concentration that produces a half-maximal response.
